Assay results reported in US11872200B2, “GABA agonists in the treatment of disorders associated with metabolic syndrome and GABA combinations in treatment or prophylaxis of type I diabetes” (The Regents of the University of California, priority 2010, dated 2024).

Experiments:
newly diabetic NOD mice [1] = test: Reversal of hyperglycemia in newly diabetic NOD mice; format: in vivo; conditions: FIG. 11, individual mice
Procedure: FIGS. 9A-9C illustrate the ability of coadministered GAD and GABA to reverse hyperglycemia in newly diabetic NOD mice. Mice were considered diabetic after two blood glucose>250 mgs/dL. […] Data shown are blood glucose levels in individual mice given no treatment (FIG. 9A), GABA alone (6 mgs/ml in drinking water) (FIG. 9B), or GABA+GAD/alum (100 μg sc on day 1 and 14) (FIG. 9C). The mice are staggered because they became spontaneously diabetic at different times, we alternated which treatment group they were placed into, and we are still entering mice into the study and monitoring them.
Based on the ability of GAD+GABA therapy to prolong islet graft survival, we tested whether this treatment could reverse hyperglycemia in newly diabetic NOD mice. We are still adding mice into these studies, but the patterns are clear. […] Acad. Sci., U.S.A., 89: 3434-3438), ALG+GCSF reversed T1D in 75% of mice over a 180 day observation period (Parker et al. (2009) Diabetes, 58: 2277-2284) and TL-2 reversed T1D in 60% of mice over a 56 day observation period (Grinberg-Bleyer et al. (2010) J. Exp. Med., 207: 1871-1878). Thus GAD+GABA has a synergistic and robust therapeutic effect.
We now have data showing that administration of IL-2 with GABA can enhance its therapeutic effect, and more efficiently reverse hyperglycemia. […]

newly diabetic NOD mice [2] = conditions: 56 day observation period, Grinberg-Bleyer et al. (2010); cited from earlier work

IL-2: interleukin-2, factor that stimulates a regulatory and/or immune response
newly diabetic NOD mice that became normoglycemic (blood glucose below 250 mgs/dl) (newly diabetic NOD mice [1]): one of three | mice in which T1D was reversed (newly diabetic NOD mice [2]): 60%
